Reference: ChEMBL document CHEMBL4000185, “Pyrimidine-Based Inhibitors of Dynamin I GTPase Activity: Competitive Inhibition at the Pleckstrin Homology Domain” (J Med Chem, 2017)

By UniProt entry, the sequences of proteins in these tests, tags left out.
UniProt P21452, whole entry: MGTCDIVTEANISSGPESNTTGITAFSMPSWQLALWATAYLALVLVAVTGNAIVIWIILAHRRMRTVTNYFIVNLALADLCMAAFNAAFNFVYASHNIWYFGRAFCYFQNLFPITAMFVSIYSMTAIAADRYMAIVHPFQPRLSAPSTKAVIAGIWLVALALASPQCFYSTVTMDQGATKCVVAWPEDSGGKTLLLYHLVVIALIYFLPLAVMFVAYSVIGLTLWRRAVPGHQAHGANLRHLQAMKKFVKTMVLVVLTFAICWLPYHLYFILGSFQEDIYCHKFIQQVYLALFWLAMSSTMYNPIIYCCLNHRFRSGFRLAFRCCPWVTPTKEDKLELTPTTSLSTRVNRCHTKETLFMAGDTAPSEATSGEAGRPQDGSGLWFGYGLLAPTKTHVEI

Target: Substance-K receptor (Homo sapiens, UniProt P21452)
Experiment: Displacement of [125I]NKA from human recombinant tachykinin NK2 receptor expressed in CHO cells after 60 mins by scintillation counting
Assay type: cell-based

Compound: CCCC[C@H](NC(=O)[C@H](CC(C)C)NC(=O)CNC(=O)[C@@H](NC(=O)[C@H](Cc1ccccc1)NC(=O)[C@H](CO)NC(=O)[C@@H](N)CC(=O)O)C(C)C)C(N)=O
- IC50: 3.6 nM
- Ki: 2 nM
